Assay results published in patent US9573964B2, “Oxygen linked pyrimidine derivatives” (CTI BIOPHARMA CORP., priority 2005, dated 2017).

Sequences of proteins named here, by UniProt entry; tags and fusion partners are left off. Residues count along the entry.
UniProt P36888, 27-993: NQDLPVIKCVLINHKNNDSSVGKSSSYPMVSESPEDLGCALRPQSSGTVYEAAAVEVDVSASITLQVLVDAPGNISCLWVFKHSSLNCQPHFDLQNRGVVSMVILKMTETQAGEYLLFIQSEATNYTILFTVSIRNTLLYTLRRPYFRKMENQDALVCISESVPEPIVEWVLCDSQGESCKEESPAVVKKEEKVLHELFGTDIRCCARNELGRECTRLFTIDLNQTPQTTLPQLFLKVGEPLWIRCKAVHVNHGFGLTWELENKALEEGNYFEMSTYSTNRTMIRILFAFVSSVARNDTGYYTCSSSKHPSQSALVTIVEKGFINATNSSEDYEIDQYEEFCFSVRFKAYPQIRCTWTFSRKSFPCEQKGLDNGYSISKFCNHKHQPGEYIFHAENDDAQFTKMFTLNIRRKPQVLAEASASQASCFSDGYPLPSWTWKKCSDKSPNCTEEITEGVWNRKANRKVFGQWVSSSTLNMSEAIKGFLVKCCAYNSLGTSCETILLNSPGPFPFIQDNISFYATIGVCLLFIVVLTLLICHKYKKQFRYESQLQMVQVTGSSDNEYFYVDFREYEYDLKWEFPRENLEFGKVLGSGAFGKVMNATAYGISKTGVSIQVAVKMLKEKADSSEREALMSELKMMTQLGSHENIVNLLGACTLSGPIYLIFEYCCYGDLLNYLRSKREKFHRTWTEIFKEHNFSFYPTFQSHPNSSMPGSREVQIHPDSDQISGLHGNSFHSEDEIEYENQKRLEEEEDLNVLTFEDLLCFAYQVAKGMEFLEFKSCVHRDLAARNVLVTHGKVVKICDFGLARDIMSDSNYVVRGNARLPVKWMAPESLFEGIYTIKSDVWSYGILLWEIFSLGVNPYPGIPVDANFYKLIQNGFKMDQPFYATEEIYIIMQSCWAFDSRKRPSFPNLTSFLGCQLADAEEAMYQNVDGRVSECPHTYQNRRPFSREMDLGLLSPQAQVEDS

Target: T1, FLT3 (Homo sapiens, UniProt P36888)
T1 construct: purchased Invitrogen PV3182
Test: In vitro kinase activity assay (PKLight), FLT3
Assay type: biochemical
Procedure: The recombinant enzymes (CDK2/CyclinA, FLT3, JAK2 and JAK2 V617F) were purchased from Invitrogen (Cat #PV3267, 3182, 4210 and 4347 respectively). All assays were carried out in 384-well white microtiter plates using the PKLight assay system from Cambrex (East Rutherford, N.J.). This assay platform is essentially a luminometric assay for the detection of ATP in the reaction using a luciferase-coupled reaction. For CDK2/Cyclin A assay, the reaction mixture consisted of the following components in 25 μL assay buffer (50 mM Hepes pH 7.5, 10 mM MgCl2, 5 mM MnCl2, 5 mM BGP, 1 mM DTT, 0.1 mM sodium orthovanadate), 1.4 μg/mL of CDK2/Cyclin A complex, 0.5 μM of RbING substrate (Invitrogen, Cat #PV2939) and 0.5 μM of ATP. The compounds were tested at 8 concentrations prepared from 4-fold serial dilution starting at 10 μM. The reaction was incubated at room temperature for 2 hr. 13 μL of PKLight ATP detection reagent was added and the reaction was incubated for 10 min. Luminescence signals were detected on a multi-label plate reader (Victor^2 V 1420, Perkin-Elmer). The other kinase assays were identical except for the following differences in reagents. For FLT3 assays, the reaction contained 2.0 μg/mL FLT3 enzyme, 5 μM of poly(Glu,Tyr) substrate (Sigma, Cat #P0275) and 4 μM of ATP. […]

For C1=C/COCc2cc(ccc2OCCN2CCCC2)Nc2nccc(n2)-c2cccc(c2)COC/1 [Compound 13], the IC50 was at most 1 µM.
